Only a part is listed here, and it is no random draw. Calls of active or inactive are those of the source.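 Rule for the calls: active = percent inhibition above the average of all tested compounds plus 3 SD, set per screening campaign (cut at about 16% in these data); inactive = the rest.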

Protein sequences, listed by entry. Tags and fused reporters are not part of them.
UniProt P14735, whole entry, looked up: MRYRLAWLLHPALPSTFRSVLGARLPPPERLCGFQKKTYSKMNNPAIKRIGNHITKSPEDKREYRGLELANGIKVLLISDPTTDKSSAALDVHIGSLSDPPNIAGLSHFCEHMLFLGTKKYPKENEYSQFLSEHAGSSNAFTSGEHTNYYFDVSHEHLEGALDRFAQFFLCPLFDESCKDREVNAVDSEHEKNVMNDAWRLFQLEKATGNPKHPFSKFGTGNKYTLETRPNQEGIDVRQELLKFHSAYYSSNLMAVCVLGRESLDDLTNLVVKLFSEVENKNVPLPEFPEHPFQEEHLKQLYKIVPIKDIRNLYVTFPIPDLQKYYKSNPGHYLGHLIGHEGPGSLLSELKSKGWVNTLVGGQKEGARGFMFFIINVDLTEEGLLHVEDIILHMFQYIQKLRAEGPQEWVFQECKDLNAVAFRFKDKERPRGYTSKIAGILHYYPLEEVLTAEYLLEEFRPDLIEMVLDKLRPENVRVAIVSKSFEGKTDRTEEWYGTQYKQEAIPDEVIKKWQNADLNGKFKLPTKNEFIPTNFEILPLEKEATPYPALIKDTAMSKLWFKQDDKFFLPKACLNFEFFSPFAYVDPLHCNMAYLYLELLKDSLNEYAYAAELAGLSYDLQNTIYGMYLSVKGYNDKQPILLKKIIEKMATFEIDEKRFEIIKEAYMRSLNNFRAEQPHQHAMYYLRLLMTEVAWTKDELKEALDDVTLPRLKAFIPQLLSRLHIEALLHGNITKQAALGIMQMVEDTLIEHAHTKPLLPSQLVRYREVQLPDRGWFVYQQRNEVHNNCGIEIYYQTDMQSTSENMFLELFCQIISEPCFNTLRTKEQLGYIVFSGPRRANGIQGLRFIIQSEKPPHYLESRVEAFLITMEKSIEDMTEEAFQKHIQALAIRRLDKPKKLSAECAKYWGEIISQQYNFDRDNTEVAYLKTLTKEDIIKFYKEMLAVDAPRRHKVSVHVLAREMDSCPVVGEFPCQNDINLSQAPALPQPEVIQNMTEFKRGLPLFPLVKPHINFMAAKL

This assay concerns the target Insulin-degrading enzyme (Homo sapiens) (UniProt P14735). Description: human IDE inhibitors in live cells, primary screen, fluorescence polarization, HEK cells, FAbetaB substrate (AID 434962).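 Note: IDE supplied by intact live HEK cells; FP after avidin binding of uncleaved biotin substrate so inhibition keeps polarization high; 0% = DMSO wells and 100% = 60 µM reference IDE inhibitor Ii1.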 The settings on record: FAbetaB cleavage, at 5.59 µM, hits give high values.
As to `CC(C)(C)C(=O)NC(Sc1ccncn1)C(Cl)(Cl)Cl` (centres undefined), the inhibition is inactive: 3.3%.

Turning to `O=[N+]([O-])c1ncn(CCn2ncnc2[N+](=O)[O-])n1`, the inhibition was inactive: 0.49%.

For `O=[N+]([O-])c1cccc(NC2=NCC(CBr)S2)c1` (centres undefined), the inhibition is inactive: -1.49%.

In the case of `O=C(Nc1cc([As](=O)(O)O)ccc1O)c1ccccc1`, the inhibition is inactive: -5.5%.

On to `C[N+]1=C2C=CC=CC=C2SC12C([N+](=O)[O-])=CC([N+](=O)[O-])=C[C-]2[N+](=O)[O-]` (centres undefined), for which the inhibition was inactive: 3.41%.

For `Nc1ccc([As](=O)(O)c2ccc(N)cc2)cc1`, the inhibition was inactive: 5.4%.

Turning to `CCN(/C(=N/P(=O)(N1CCOCC1)N1CCOCC1)N1CCOCC1)c1ccc(OC)cc1`, the inhibition is inactive: -0.51%.

Turning to `CN(C)C(=O)OCCc1n(C)cc[n+]1C`, the inhibition was inactive: 2.98%.

Regarding `CC(C)=N/N=C(\N)N[N+](=O)[O-]`, the inhibition is inactive: 3.33%.

Take `CC1CCN(C(=O)Oc2c(Cl)cc(Cl)c3cccnc23)CC1`: the inhibition was inactive: 6.17%.

`COc1ccc(C2=NCC(CBr)S2)cc1` (centres undefined): the inhibition is inactive: 3.43%.

With `O=[N+]([O-])c1cccc2n[nH]nc12`, the inhibition is inactive: 7.28%.

Regarding `CC(=O)N1C2C3N(C(C)=O)C1C1N(C(C)=O)C(C(N1C(C)=O)N3C(C)=O)N2C(C)=O`, the inhibition was inactive: 4.83%.

With `CCc1nc2c(n1)c1c(non1O)c1c2no[n+]1[O-]`, the inhibition is inactive: 2.5%.

With `O=[N+]([O-])c1cc([N+](=O)[O-])c(CCNc2ccccc2)c([N+](=O)[O-])c1`, the inhibition is inactive: 2.15%.

On to `Cc1ccc(NP(=O)(Oc2ccccc2)Oc2ccccc2)nc1`, for which the inhibition is inactive: 1.85%.

For the compound `CC(C)CC(=O)NC(Sc1ccc(Cl)cc1)C(Cl)(Cl)Cl` (centres undefined), the inhibition was inactive: -4.75%.

Turning to `Nc1cc(N)c2nonc2c1[N+](=O)[O-]`, the inhibition is inactive: -8.67%.

`Cc1c2non([O-])c-2c(C)[n+](=O)[n+]1[O-]`: the inhibition is inactive: 8.69%.

For `O=C(NC(Sc1ccncn1)C(Cl)(Cl)Cl)c1ccccc1` (centres undefined), the inhibition was inactive: 3.93%.

For the compound `Oc1ccccc1CNc1ccccn1`, the inhibition is inactive: -4.12%.

As to `NC(=O)c1cc([N+](=O)[O-])cc([N+](=O)[O-])c1N`, the inhibition was inactive: 0.28%.

In the case of `Cc1ccc(N/C(=N/P(=O)(N2CCOCC2)N2CCOCC2)N2CCOCC2)cc1`, the inhibition was inactive: 6.38%.

Regarding `CN(C(=O)Cc1ccc(Cl)c(Cl)c1)[C@H]1CCCC[C@H]1N1CCCC1`, the inhibition was inactive: 4.93%.

Turning to `Cc1ccc(OP(=O)(Nc2nccs2)Oc2ccc(C)cc2)cc1`, the inhibition is inactive: 3.08%.

As for `COc1ccccc1OP(=O)(Nc1ccc(C)cn1)Oc1ccccc1OC`, the inhibition was inactive: -2.35%.

Consider `Clc1ccc(Cl)c(NC2=NCC(CBr)S2)c1` (centres undefined), for which the inhibition was inactive: -2.82%.

For the compound `CN1CCCC(OC(=O)C(c2ccccc2)c2ccccc2)C1` (centres undefined), the inhibition was inactive: -0.58%.

Take `O=[N+]([O-])c1cc([N+](=O)[O-])c(CCN2CCOCC2)c([N+](=O)[O-])c1`: the inhibition was inactive: -8.79%.

Regarding `CCN(N=Nc1nonc1N)c1nonc1N`, the inhibition is inactive: 5.19%.

For `O=C(O)c1ccccc1[As](=O)(O)O`, the inhibition is inactive: 7.09%.

Take `CC(=O)Nc1ccc([As](=O)(O)O)cc1`: the inhibition was inactive: 6.11%.

`O=P(Nc1nc2ccc(Cl)cc2s1)(c1ccccc1)c1ccccc1`: the inhibition was inactive: -2.4%.

In the case of `Cc1ccc(NP(=O)(Oc2ccccc2F)Oc2ccccc2F)nc1`, the inhibition was inactive: 1.55%.

For the compound `CN(C(=O)Cc1ccc(Cl)c(Cl)c1)[C@H]1CCCC[C@@H]1N1CCCC1`, the inhibition was inactive: 4.36%.

Regarding `CCOP(=O)(Nc1ccccc1)OCC`, the inhibition is inactive: 1.68%.

Turning to `Cc1cc(SC(NC(=O)c2ccc(F)cc2)C(Cl)(Cl)Cl)ncn1` (centres undefined), the inhibition was inactive: 0.65%.

For the compound `Cc1ccc(OP(=O)(Nc2ccccn2)Oc2ccc(C)cc2)cc1`, the inhibition is inactive: -2.21%.

For the compound `CC(=O)NC(SC(=S)N(CC(C)C)CC(C)C)C(Cl)(Cl)Cl` (centres undefined), the inhibition was inactive: -6.46%.

`COC(=O)c1cc2c(s1)N=C(c1ccccc1)N(C)P2(=O)N1CCOCC1` (centres undefined): the inhibition was inactive: 10.6%.

As for `CCC(=O)N1C2C3N(C(=O)CC)C1C1N(C(=O)CC)C(C(N1C(=O)CC)N3C(=O)CC)N2C(=O)CC`, the inhibition was inactive: -6.92%.

For `O=C(OC1CN2CCC1CC2)c1ccccc1` (centres undefined), the inhibition is inactive: -0.54%.

`CN(C)C(=O)Oc1noc2ccccc12`: the inhibition was inactive: 1.01%.

For `Cc1ccccc1OP(=O)(Nc1ccccn1)Oc1ccccc1C`, the inhibition is inactive: 3.61%.

As for `CC(NC(=O)COC(=O)C(O)(c1ccccc1)c1ccccc1)c1ccccc1` (centres undefined), the inhibition was inactive: 1.91%.

In the case of `CCNC(=S)/N=C(\N)N[N+](=O)[O-]`, the inhibition is inactive: 2.21%.

`O=C(NC1CCS(=O)(=O)C1)NP(=S)(Oc1ccccc1)Oc1ccccc1` (centres undefined): the inhibition was inactive: 1.29%.

For the compound `CCOC(=O)NC(Sc1ccccc1)C(Cl)(Cl)Cl` (centres undefined), the inhibition was inactive: 9.67%.

Turning to `Cc1ccc(NP(=O)(Oc2cccc(C)c2)Oc2cccc(C)c2)nc1`, the inhibition is inactive: -2.35%.

Consider `c1ccc(-c2nn[nH]n2)c(-c2nn[nH]n2)c1`, for which the inhibition was inactive: -2.26%.

Take `CC(=O)c1ccc(N2CC2c2ccncc2)cc1` (centres undefined): the inhibition was inactive: 3.49%.

For `C[C@@H]1C=CCP(=O)(Oc2ccccc2)O1` (some centres undefined), the inhibition is inactive: 1.03%.

As to `C[C@H]1OP(=O)(Oc2ccccc2)C[C@@H]2O[C@@H]21` (some centres undefined), the inhibition was inactive: 5.92%.

For the compound `Cc1ccccc1CN(C)C(=O)COC(=O)C(O)(c1ccccc1)c1ccccc1`, the inhibition is inactive: -4.25%.

Take `CC(=O)Nc1ccc(Oc2c([N+](=O)[O-])cc([N+](=O)[O-])cc2[N+](=O)[O-])cc1`: the inhibition is inactive: 2.95%.

On to `CC(=O)Nc1ccc([As](=O)(O)O)c(O)c1`, for which the inhibition was inactive: 4.14%.

With `CCOc1ccc(C2=NCC(CBr)S2)cc1` (centres undefined), the inhibition is inactive: 0.98%.

As for `O=P1(Nc2nc3ccc(Cl)cc3s2)COc2ccccc2O1` (centres undefined), the inhibition is inactive: -1.96%.

On to `CC(C)(C)C(=O)NC(Sc1ccccc1)C(Cl)(Cl)Cl` (centres undefined), for which the inhibition is inactive: 12%.

For the compound `CC(C)C(=O)NC(Sc1ccccc1)C(Cl)(Cl)Cl` (centres undefined), the inhibition was inactive: 4.07%.

As to `O=P(Nc1nccs1)(c1ccccc1)c1ccccc1`, the inhibition was inactive: 3.23%.

In the case of `c1nnnn1CCn1cnnn1`, the inhibition was inactive: 0.16%.

For the compound `O=[N+]([O-])c1ccc(O)c(/C=N/Nc2ccc([N+](=O)[O-])cc2[N+](=O)[O-])c1`, the inhibition is inactive: 2.71%.

As to `O=[N+]([O-])c1ncn(CCn2cnc([N+](=O)[O-])n2)n1`, the inhibition is inactive: -1.83%.
